The test concerns the target Nociceptin receptor (Homo sapiens, UniProt P41146). The settings on record: hek293.

Sequences of proteins named here, by UniProt entry; tags and fusion partners are left off. A change or cut given only in a name is not applied to a line headed by its entry.
UniProt P41146: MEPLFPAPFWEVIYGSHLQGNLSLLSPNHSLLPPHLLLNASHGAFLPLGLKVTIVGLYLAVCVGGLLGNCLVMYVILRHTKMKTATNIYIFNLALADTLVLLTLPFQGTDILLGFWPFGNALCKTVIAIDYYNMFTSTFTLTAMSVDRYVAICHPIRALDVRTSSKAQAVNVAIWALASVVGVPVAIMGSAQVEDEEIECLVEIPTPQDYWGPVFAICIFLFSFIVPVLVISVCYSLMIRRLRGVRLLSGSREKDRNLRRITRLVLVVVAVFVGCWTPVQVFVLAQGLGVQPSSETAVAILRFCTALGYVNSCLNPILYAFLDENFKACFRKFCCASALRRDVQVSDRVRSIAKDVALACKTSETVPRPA

A word on the IC50: it is the concentration at which inhibition is half-maximal. High values mean weaker potency, low ones greater potency. `CC(C)[C@H]1CC[C@@H](N2CCC3(CC2)C(=O)N(CCCCCCCCCN2CN(c4ccccc4)C4(CCN([C@H]5CC[C@@H](C(C)C)CC5)CC4)C2=O)CN3c2ccccc2)CC1` gave an IC50 of 25.2 nM.

(Values after ChEMBL document CHEMBL1759965, “Synthesis and pharmacological evaluation of bivalent antagonists of the nociceptin opioid receptor” (Eur J Med Chem, 2011).)
